Tested on: strain ARG3
Assay: MIC by E-test, strain ARG3
Format: cell-based, Gardnerella vaginalis
Details: Mueller-Hinton agar with 5% sheep's blood, CLSI, repeated twice

Q: `CCC[C@@H]1C[C@@H](C(=O)N[C@@H]([C@H]2O[C@H](SC)[C@H](O)[C@@H](O)[C@H]2O)[C@H](C)Cl)N(C)C1` [clindamycin] was tested. Which “Minimum Inhibitory Concentration (MIC)” value did it give?
A: Its value is 0.125.

Reference: patent US9198957B2, “Treatment and prevention of bacterial vaginosis and Gardnerella vaginalis infections” (The Trustees of Columbia University in the City of New York, priority 2011, dated 2015)
